These are literature values, as cited in patent US5672603A, “Apoptosis regulating composition” (Otsuka Pharmaceutical Co., Ltd., priority 1991, dated 1997).

For the data set, the system named is apoptosis. To be noted: literature; cited from earlier work.

On to IL-2: IL-2, for which the Repression of apoptosis result was “repress apoptosis”.

B1: IL-3: hematopoietic system cytokine (protein, UniProt P08700 20-152, looked up)
Interleukin-3: APMTQTTPLKTSWVNCSNMIDEIITHLKQPPLPLLDFNNLNGEDQDILMENNLRRPNLEAFNRAVKSLQNASAIESILKNLLPCLPLATAAPTRHPIHIKDGDWNEFRRKLTFYLKTLENAQAQQTTLSLAIF
Take B1: the Repression of apoptosis entry is reported as “repress apoptosis”.
